# scFv variants of Ab-95 (light chain) against a SARS-CoV-2 spike peptide

Reference: Engelhart et al. 2022, doi:10.1038/s41597-022-01779-4. File: FLAb, binding data.

Antigen: PDVDLGDISGINAS, a 14-residue peptide of the SARS-CoV-2 spike HR2 region.

Parent scFv Ab-95: VH joined to VL by the linker GGGGSGGGGSGGGGS. Changes lie in the light chain CDRs alone.
VH: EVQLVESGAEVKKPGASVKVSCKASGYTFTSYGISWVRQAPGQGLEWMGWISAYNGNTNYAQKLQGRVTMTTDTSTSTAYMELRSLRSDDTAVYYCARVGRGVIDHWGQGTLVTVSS
VL: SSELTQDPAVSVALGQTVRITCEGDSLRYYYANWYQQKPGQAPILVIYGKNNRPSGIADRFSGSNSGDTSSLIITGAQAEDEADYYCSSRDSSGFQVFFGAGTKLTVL

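Phage display of a naive human antibody library on the peptide gave the parent. AAYL52 was designed without a model: most single CDR substitutions and a random sample of double and triple ones. The assay is AlphaSeq: two haploid yeast populations carry antibody and antigen on their surface. After mating in shaken culture at 30 °C for 16 h, diploids were selected and their barcode pairs sequenced. Each replicate has its own calibration line, from reference interactions of the BCL2 family. The assay was run in three technical replicates.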

Each variant's VL is given in full. Kd is apparent (estimated from mating counts) and averaged on the log scale over replicates with a signal. Smaller is tighter. A pair that was not seen in any replicate is written "nd"; this usually means weak binding, but a binder can also be missed. For reference, the parent read 200 nM as the reference entry and 180 nM as a member of this library. Nonspecific signal, from three strains lacking the peptide, appeared in 28% of pairings of library AAYL52, centred on 8.2 µM (5% of these signals below 800 nM); values are not corrected for it. Also given: how often the same scFv was detected with the empty control strains.

For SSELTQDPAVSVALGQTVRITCEGFSLRYYYAVWYQQKPGQAPILVIYGKNNIPSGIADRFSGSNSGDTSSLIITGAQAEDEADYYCSSRDSSGFQVFFGAGTKLTVL, the assay gave nd (0 of 3 replicates; controls 2 of 9).
For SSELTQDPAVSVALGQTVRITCEGVSLRYYYANWYQQKPGQAPILVIYGKNNRHSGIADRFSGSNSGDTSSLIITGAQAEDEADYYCRSRDSSGFQVFFGAGTKLTVL, the assay gave 2.7 µM (3 of 3 replicates; controls 1 of 9).
For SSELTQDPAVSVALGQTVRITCEGDSCRYYYANWYQQKPGQAPILVIYGKNNRPSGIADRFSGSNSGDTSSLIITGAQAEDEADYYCSSRDSSTFDVFFGAGTKLTVL, the assay gave 56 µM (1 of 3 replicates; controls 0 of 9).
For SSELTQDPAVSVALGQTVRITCEGDSLRYYYANWYQQKPGQAPILVIYGKNNRPNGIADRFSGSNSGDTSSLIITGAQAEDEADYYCSSRDSSVFMVFFGAGTKLTVL, the assay gave 900 nM (3 of 3 replicates; controls 3 of 9).
For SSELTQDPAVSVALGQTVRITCEWDSLRYYYANWYQQKPGQAPILVIYGKNNQPSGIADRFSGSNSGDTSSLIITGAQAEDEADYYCSSRDSSGFQVFFGAGTKLTVL, the assay gave 290 µM (1 of 3 replicates; controls 2 of 9).
For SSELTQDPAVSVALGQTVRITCEGDSLRYYYDNWYQQKPGQAPILVIYGWNNRPSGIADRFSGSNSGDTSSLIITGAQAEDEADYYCSSRDISGFQVFFGAGTKLTVL, the assay gave nd (0 of 3 replicates; controls 0 of 9).
For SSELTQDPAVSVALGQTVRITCEGDSVEYYYANWYQQKPGQAPILVIYGKNNRPSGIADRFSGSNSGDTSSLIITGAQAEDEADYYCRSRDSSGFQVFFGAGTKLTVL, the assay gave 26 µM (1 of 3 replicates; controls 2 of 9).
For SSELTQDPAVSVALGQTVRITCEPDSLRYYYFNWYQQKPGQAPILVIYGKNNRPSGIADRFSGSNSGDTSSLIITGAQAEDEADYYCSSRDGSGFQVFFGAGTKLTVL, the assay gave 3.5 µM (2 of 3 replicates; controls 4 of 9).
For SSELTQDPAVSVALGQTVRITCEGDSLRYYYACWYQQKPGQAPILVIYGKNNRPSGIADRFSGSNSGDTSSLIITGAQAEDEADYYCSCRDSSGFQWFFGAGTKLTVL, the assay gave 7.9 µM (2 of 3 replicates; controls 2 of 9).
For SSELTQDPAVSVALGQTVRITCVGDSLMYYYANWYQQKPGQAPILVIYGKNNRPSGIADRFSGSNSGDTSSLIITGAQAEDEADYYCSSRDKSGFQVFFGAGTKLTVL, the assay gave 230 nM (3 of 3 replicates; controls 1 of 9).
For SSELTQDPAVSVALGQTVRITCEGDFLRHYYANWYQQKPGQAPILVIYGKNNRPSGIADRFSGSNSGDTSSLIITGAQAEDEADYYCSSRDSSGQQVFFGAGTKLTVL, the assay gave 1.0 µM (3 of 3 replicates; controls 3 of 9).

The remaining entries, values ahead:

10 µM (2 of 3 replicates; controls 4 of 9) for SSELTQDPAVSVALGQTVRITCEGDELRWYYANWYQQKPGQAPILVIYGKNNRDSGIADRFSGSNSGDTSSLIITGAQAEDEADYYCSSRDSSGFQVFFGAGTKLTVL.
nd (0 of 3 replicates; controls 0 of 9) for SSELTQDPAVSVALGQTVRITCEGMILRYYYLNWYQQKPGQAPILVIYGKNNRPSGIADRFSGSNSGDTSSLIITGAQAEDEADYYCSSRDSSGFQVFFGAGTKLTVL.
8.4 µM (3 of 3 replicates; controls 4 of 9) for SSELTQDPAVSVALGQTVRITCEGDSQRYYYANWYQQKPGQAPILVIYGKNNRPSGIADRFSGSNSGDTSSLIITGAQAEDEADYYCSSRDSSGFQVWFGAGTKLTVL.
2.9 µM (3 of 3 replicates; controls 3 of 9) for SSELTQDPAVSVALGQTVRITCEGDSLRYYYINWYQQKPGQAPILVIYGPNNRPSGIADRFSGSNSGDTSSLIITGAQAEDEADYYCSSRDSSNFQVFFGAGTKLTVL.
8.5 µM (2 of 3 replicates; controls 2 of 9) for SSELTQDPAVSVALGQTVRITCEGDSLRYYYANWYQQKPGQAPILVIYGKNNRPSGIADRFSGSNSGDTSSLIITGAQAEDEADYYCRSRDSSFFQQFFGAGTKLTVL.
nd (0 of 3 replicates; controls 3 of 9) for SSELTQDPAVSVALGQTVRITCEGDSLRYYYANWYQQKPGQAPILVIYGKNNRFSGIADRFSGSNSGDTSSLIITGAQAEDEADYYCSSRDSSGNQVIFGAGTKLTVL.
1.6 µM (1 of 3 replicates; controls 4 of 9) for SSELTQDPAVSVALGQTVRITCEGDSKRYYYANWYQQKPGQAPILVIYGKNNFPTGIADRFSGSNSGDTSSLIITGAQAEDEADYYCSSRDSSGFQVFFGAGTKLTVL.
2.4 µM (2 of 3 replicates; controls 7 of 9) for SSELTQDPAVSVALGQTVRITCEGDSLRYYYANWYQQKPGQAPILVIYGKNNLPSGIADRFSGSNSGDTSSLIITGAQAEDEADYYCSSRDSQDFQVFFGAGTKLTVL.
3.2 µM (3 of 3 replicates; controls 2 of 9) for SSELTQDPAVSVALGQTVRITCRGDSLRYYYANWYQQKPGQAPILVIYGKNNRPSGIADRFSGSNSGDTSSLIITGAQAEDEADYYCSSRDSSSFQPFFGAGTKLTVL.
2.9 µM (1 of 3 replicates; controls 3 of 9) for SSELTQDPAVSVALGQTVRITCEGQSLRYYYANWYQQKPGQAPILVIYAKNNRPSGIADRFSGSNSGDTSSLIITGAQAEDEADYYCSSRDSSGFQRFFGAGTKLTVL.
3.9 µM (2 of 3 replicates; controls 6 of 9) for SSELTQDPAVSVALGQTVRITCEGHSLRYYYFNWYQQKPGQAPILVIYGKNNRPSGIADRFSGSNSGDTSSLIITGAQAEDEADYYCRSRDSSGFQVFFGAGTKLTVL.
nd (0 of 3 replicates; controls 2 of 9) for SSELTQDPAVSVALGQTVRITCEIDSLRYYYANWYQQKPGQAPILVIYGKVNRPCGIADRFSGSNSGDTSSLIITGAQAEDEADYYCSSRDSSGFQVFFGAGTKLTVL.

From the list, the first 3 with no signal in any replicate:

VL	Kd (apparent)	replicates with signal	empty controls
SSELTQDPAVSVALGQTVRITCEGFSLRYYYAVWYQQKPGQAPILVIYGKNNIPSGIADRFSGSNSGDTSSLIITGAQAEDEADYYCSSRDSSGFQVFFGAGTKLTVL	nd	0 of 3	2 of 9
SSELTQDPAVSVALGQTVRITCEGDSLRYYYDNWYQQKPGQAPILVIYGWNNRPSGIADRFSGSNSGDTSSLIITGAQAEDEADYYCSSRDISGFQVFFGAGTKLTVL	nd	0 of 3	0 of 9
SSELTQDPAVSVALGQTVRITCEGMILRYYYLNWYQQKPGQAPILVIYGKNNRPSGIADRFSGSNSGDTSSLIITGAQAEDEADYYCSSRDSSGFQVFFGAGTKLTVL	nd	0 of 3	0 of 9